Experiments:
HDLEC = assay: qPCR of lymphatic fate genes in adenovirus-transduced HDLEC; assay type: cell-based, Human; details: HDLEC transduced with the named construct
Source text: (§1) Raf1 lentiviruses were produced in 293A cells (Invitrogen) by co-transfection of pLVX-HA-Raf1 WT or S259A with lentiviral packaging plasmids pMD2.G, pRSV-REV and pMDLg/pRRE (Addgene) as described by Dull, J Virol 72:8463-8471 (1998). Control lentivirus was also made using an empty vector pLVX-IRES-puro. Ad-MEK1 CA was from Cell Biolabs, Inc. Ad-Mek1 DN was purchased from Vector Biolabs. All adenoviruses were produced, amplified and purified as described by Dull 1998; Luo, et al. Nat Protoc 2:1236-1247 (2007). For lentiviral infection, cells were incubated with lentivirus in growth medium in the presence of 8 μg/ml polybrene (Sigma) for 8 hours. For adenoviral infection, cells were incubated with adenovirus (MOI=100) in growth medium for overnight.
(§2) Total RNA was purified using a QiagenRNeasyPlus Mini kit. cDNA was synthesized using a Bio-Rad iScript cDNA Synthesisis kit. qPCR was performed using a Bio-Rad iQ SYBR Green Supermix on a Bio-Rad CFX96 Real Time System. For immunoblot, cells were lysed in RIPA buffer supplemented with protease and phosphatase inhibitors. Cell lysates were then separated with 4-20% gradient gel (Bio-Rad) and subjected to immunoblot.

HUVEC [1] = assay: Migration (wound healing) assay; assay type: cell-based, Human; details: under stimulation of serum, 18 hours
Method: For the cell migration assay, endothelial cells were cultured to confluence in 24-well plates. Prior to serum starvation, the cells were treated with 10 μg/ml mitomycin C for four hours to block proliferation, and then washed three times with DMEM. The cells were starved overnight with 0.5% FBS, DMEM. A scratch was then made using a 200 μl tip, and the cells were allowed to migrate for 18 hours in DMEM containing 0.5%, 10% FBS or 50 ng/ml VEGF. Pictures were taken right after scratch making and at the end of migration. The migration rate was then determined by analyzing the distance that cells migrated during the period.

HUVEC [2] = assay: Apoptosis assay (serum withdrawal, Annexin V/PI flow cytometry); assay type: cell-based, Human; details: serum-starved 48 hours, vehicle, versus empty control lentivirus
HUVEC [3] = assay: Matrigel tube formation assay; assay type: cell-based, Human; details: overexpression in HUVEC, 8 hours
Method: Twenty four well plates were coated with 0.5 ml growth factor reduced Matrigel (BD Bioscience) at 37° C. for 1 hour. Endothelial cells were then trypsinized with 0.25% Trypsin-EDTA (Gibco), washed twice with and resuspended in serum-free DMEM (Lonza). Cell number was counted, and 6×10^4 cells were plated onto the Matrigel coated plates. Endothelial tube was allowed to form for 8 hours. Then the cells were fixed in 4% paraformaldehyde (PFA) in PBS, and pictures were taken under a convert microscope. Tube length was quantitated using Image J 1.410 (NIH).

HUVEC [4] = assay: qPCR of lymphatic fate genes in virus-transduced HUVEC; assay type: cell-based, Human; details: HUVEC transduced with the named construct
Source text: as §1, §2

HUVEC [5] = assay: qPCR of artery-vein specification genes in lentivirus infected HUVEC; assay type: cell-based, Human
Method: (§3) The expression levels of a collection of genes involved in artery-vein specification in control, Raf1 WT and Raf1 S259A lentivirus infected HUVEC were investigated using real time quantitative PCR. For qPCR analysis, RNA was prepared from cells using a Qiagen RNaeasy kit (Cat. 74106) following the instructions from the manufacturer. cDNA was synthesized using iScript cDNA Synthesis kit (Bio-Rad). Gene expression was then analyzed by qPCR using a Bio-Rad SYBR kit on a Bio-Rad CFX96 system. Primers for qPCR were all purchased from SA Biosciences Corporation, MD. All gene expressions were normalized to glyceraldehyde-3-phosphate dehydrogenase (GAPDH) levels and represented as mRNA per 10^3 GAPDH. Standard errors were calculated based on three independent experiments. The cell lysates of these cells were also prepared and analyzed by western blot using indicated antibodies. In other experiments, HUVEC cells were infected with different doses (MOI: 0, 5, 10, 50) of Raf1 WT or S259A adenovirus for 48 hours. Cells were lysed and analyzed by western blot using indicated antibodies. (FIG. 3P).

ERK = ERK activation by western blot in HUVEC infected with RAF1 WT or RAF1 S259A lentivirus; assay type: cell-based, Human; details: overexpression in HUVEC by lentivirus
Method: ERK activation was quantified by densitometry and is represented as ratio of pERK1/2 versus total ERK1/2. Immunofluorescence staining showing higher P-ERK1/2 in β-GAL positive endothelial cells of E12.5 S259A embryos. jv, jugular vein. FIGS. 10B-10E are graphs showing HUVEC transduced with control, wild type Raf1 or RAF1S259A lentiviruses treated with DMSO, MEK inhibitor U0126 (10 μM) or PI3K inhibitor LY294002 (10 μM) for 24 hours. Sox18 (FIG. 10B), Prox1 (Figure), Vegfr3 (FIG. 10D) and Lyve1 (10E) expression was assessed by qPCR. FIGS. 10E-10H are graphs showing HUVEC transduced with GFP or RAF1S259A adenoviruses treated with DMSO, Rapamycin (10 nM), AKT inhibitor VIII (1 μM) and LY294002 (10 μM) for 24 hours. Sox18 (FIG. 10F), Prox1 (FIG. 10G) and Coup-TFII (FIG. 10H) expression assessed by qPCR. Data are Mean±SEM (n=3).*, p<0.05; **, p<0.01.
Cells were cultured to 50-60% confluence on 6-well plates. […]
To determine whether Ser259 to Ala259 mutation in RAF1 affects ERK activation in endothelial cells, wild type and mutant RAF1 (RAF1 S259A) were overexpressed in HUVEC. […] Forty eight hours later, the cells were selected with 0.5 μg/ml puromycin for 4 days and analyzed by western blot with indicated antibodies. […]

14-3-3 = assay: Immunoprecipitation of HA-RAF1 from HUVEC, western blot for 14-3-3; assay type: binding, Human; details: anti-HA immunoprecipitation
Method: To determine whether Ser259 to Ala259 mutation in RAF1 affects ERK activation in endothelial cells, wild type and mutant RAF1 (RAF1 S259A) were overexpressed in HUVEC. HUVEC cells were infected with equal amount of empty lentivirus (Control), RAF1 WT (Raf1 WT) lentivirus or RAF1 S259A (Raf1 S259A) lentivirus as described above. Forty eight hours later, the cells were selected with 0.5 μg/ml puromycin for 4 days and analyzed by western blot with indicated antibodies. HUVEC cells described above were lysed as described, and immunoprecipitation was performed using anti-HA or control mouse IgG. For immunoprecipitation, cells were otherwise lysed in Triton lysis buffer (10 mM Tris-HCl, pH 7.5, 150 mM NaCl, 1% Triton X-100) supplemented with protease (Sigma) and phosphatase (Boston Bioproducts) inhibitors. Antibodies and Protein G agarose beads were then added to the cell lysates and incubated for 4 hours and 2 hours respectively. The beads were washed 6 times with Triton lysis buffer, boiled in 1× Laemmli loading dye, and subjected to SDS-PAGE and Western Blot
The immunoprecipitates were then analyzed by western blot with indicated antibodies.

HUVEC [6] = assay: Western blot of DLL4, cleaved NOTCH1 and ERK in RAF1 virus infected HUVEC; assay type: cell-based, Human; details: adenovirus MOI 0, 5, 10, 50 for 48 hours
Method: as §3

HUVEC [7] = assay: Proliferation assay (cell counting); assay type: cell-based, Human; details: overexpression in HUVEC
Method: Endothelial cells were placed on fibronectin-coated 24-well plates at a seeding density of 6000 cells/well in EGM-2 medium. Cell proliferation was analyzed by counting cell numbers every 24 fours.

## RAF1 WT: HA-tagged human wild type RAF1 overexpressed by lentivirus or adenovirus [reference compound]
HDLEC
  Sox17 expression: not
  Sox18 expression: not
HUVEC [1]
  cell migration: no obvious effect
HUVEC [2]
  cell survival: lower survival
HUVEC [3]
  tube formation (tube length): slightly improved
HUVEC [4]
  Prox1 expression: no significant effects
  Sox17 expression: not
HUVEC [4]; listed as wild type RAF1
  Sox18 expression: no significant effects
HUVEC [4]; listed as wild type Raf1
  Sox18 expression: not
HUVEC [5]
  effect on these genes (arterial genes induced by RAF1 S259A): marginal effect
ERK
  ERK activation: marginal effect
14-3-3
  co-immunoprecipitation with 14-3-3: co-immunoprecipitated
HUVEC [6]
  DLL4 protein: marginal effect
  ERK activity: marginal effect
HUVEC [7]
  cell proliferation: little effect
